In one assay the target is T1, MAO B (Rattus norvegicus, UniProt P19643).
T1 construct: carried out in dilute rat brain homogenate; from tissue; host or cells: rat brain homogenate
Description: determination of monoaminooxidase B inhibition in dilute rat brain homogenate. Format: biochemical. As to conditions: 14C-phenylethylamine or 14C-tryptamine 0.4 μmol/l, 20 min, 37° C., logit-log regression, read-out: IC50 MAO B (mean inhibitory concentration).

Protein sequences, listed by entry. Tags and fused reporters are not part of them.
UniProt P19643, whole entry: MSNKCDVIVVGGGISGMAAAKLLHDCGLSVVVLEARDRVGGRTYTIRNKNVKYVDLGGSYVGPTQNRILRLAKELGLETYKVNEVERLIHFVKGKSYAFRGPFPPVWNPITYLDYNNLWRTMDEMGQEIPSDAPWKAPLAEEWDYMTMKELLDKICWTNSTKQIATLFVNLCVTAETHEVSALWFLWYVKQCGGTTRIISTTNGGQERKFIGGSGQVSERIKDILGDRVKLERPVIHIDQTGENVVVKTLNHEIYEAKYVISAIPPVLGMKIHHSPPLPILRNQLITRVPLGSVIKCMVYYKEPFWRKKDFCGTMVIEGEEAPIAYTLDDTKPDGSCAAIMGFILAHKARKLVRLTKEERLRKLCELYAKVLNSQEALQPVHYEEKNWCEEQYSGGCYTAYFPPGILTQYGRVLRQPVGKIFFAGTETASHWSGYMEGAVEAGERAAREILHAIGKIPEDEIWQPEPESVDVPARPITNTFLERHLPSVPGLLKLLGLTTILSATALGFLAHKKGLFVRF
UniProt P21396, whole entry: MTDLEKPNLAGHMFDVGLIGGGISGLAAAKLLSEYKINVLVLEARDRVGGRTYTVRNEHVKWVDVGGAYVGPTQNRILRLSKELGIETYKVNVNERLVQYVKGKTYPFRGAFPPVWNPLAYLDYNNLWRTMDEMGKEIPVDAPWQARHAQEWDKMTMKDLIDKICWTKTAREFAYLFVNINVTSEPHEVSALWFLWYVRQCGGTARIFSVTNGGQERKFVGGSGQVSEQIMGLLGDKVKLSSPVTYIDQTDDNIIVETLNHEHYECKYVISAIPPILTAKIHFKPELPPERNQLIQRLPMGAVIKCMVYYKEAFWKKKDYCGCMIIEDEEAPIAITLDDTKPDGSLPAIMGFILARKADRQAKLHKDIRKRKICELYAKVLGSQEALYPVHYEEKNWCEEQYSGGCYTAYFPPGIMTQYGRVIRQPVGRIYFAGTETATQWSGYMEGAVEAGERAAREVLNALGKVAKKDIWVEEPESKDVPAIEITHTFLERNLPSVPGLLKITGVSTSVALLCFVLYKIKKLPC

Another assay concerns the target T2, MAO A (Rattus norvegicus, UniProt P21396).
T2 construct: carried out in dilute rat brain homogenate; from tissue; host or cells: rat brain homogenate
The assay can be described thus: determination of monoaminooxidase A inhibition in dilute rat brain homogenate. Format: biochemical.

Consider `NCCNC(=O)c1ccc(Cl)cn1` [Ro 19-6327, reference compound], for which the IC50 on MAO B is 22 nM; on MAO A, over 10000 nM.

These data come from patent US5100914A, “Arylalkoxycoumarins” (BASF Aktiengesellschaft, priority 1988, dated 1992).
